Our source for the Intrinsic activity and pKb values is ChEMBL document CHEMBL1132319, “2,3-Dihydro-2-oxo-1H-benzimidazole-1-carboxamides with selective affinity for the 5-HT(4) receptor: synthesis and structure-affinity and structure-activity relationships of a new series of partial agonist and antagonist derivatives” (J Med Chem, 1999).

In test [1] the test system is 5-HT4 receptor (Rattus norvegicus). The test can be described thus: Agonistic activity against 5-hydroxytryptamine 4 receptor.
The test system is the same in test [2]. The test can be described thus: Antagonistic activity against 5-hydroxytryptamine 4 receptor.

A word on the pKb: it is −log10 of the Kb, conventionally taken in molar units. As to `CC(C)n1c(=O)n(C(=O)NCCN2CCN(Cc3ccc(F)cc3)CC2)c2ccccc21`, in test [1], the Intrinsic activity turned out to be 0.78. Further, the negative logarithm of the Kb (pKb) in test [2] is < 6. On to `CCn1c(=O)n(C(=O)NCCN2CCN(C(C)C)CC2)c2ccccc21`, for which the Intrinsic activity in test [1] was < 0.3. Besides, the negative-log Kb (pKb) in test [2] was found to be 7.42. Regarding `CCN1CCN(CCNC(=O)n2c(=O)n(CC)c3ccccc32)CC1`, the Intrinsic activity in test [1] was < 0.3. The negative-log Kb (pKb) in test [2] was found to be 6.89. Turning to `CC(C)n1c(=O)n(C(=O)NCN2CCN(C)CC2)c2ccccc21`, the Intrinsic activity in test [1] is < 0.3. In addition, the negative logarithm of the Kb (pKb) in test [2] is < 6. Turning to `CC(C)n1c(=O)n(C(=O)NCCN2CCN(CCCOc3ccc(F)cc3)CC2)c2ccccc21`, in test [1], the Intrinsic activity came out at 0.78. For the same molecule, the pKb in test [2] amounted to 6.11. Taken in the same sequence, the figures for `Cc1cccc2c1n(C(C)C)c(=O)n2C(=O)NCCN1CCN(C)CC1` were < 0.3 and < 6.

`Cn1cc(C(=O)OCC2CCN(CCNS(C)(=O)=O)CC2)c2ccccc21` had a pKb in test [2] of 9.49. As for `CC(C)N1CCN(CCNC(=O)n2c(=O)n(C3CC3)c3ccccc32)CC1`, the Intrinsic activity in test [1] is < 0.3. Besides, in test [2], the negative logarithm of the Kb (pKb) is 7.38. For `CN1CCN(CCNC(=O)n2c(=O)n(C3CC3)c3ccccc32)CC1`, the Intrinsic activity in test [1] was determined as 0.36. The molecule further showed a pKb in test [2] of 7.24. For `CC(C)n1c(=O)n(C(=O)NCCN2CCN(C)CC2)c2cc(F)c([N+](=O)[O-])cc21` the same measures were < 0.3 and < 6. For the molecule `CCCCN1CCN(CCNC(=O)n2c(=O)n(C(C)C)c3ccccc32)CC1`, in test [1], the Intrinsic activity is < 0.3. Besides, in test [2], the pKb turned out to be 7.94. As to `CN1CCN(CCNC(=O)n2c(=O)n(CCc3ccccc3)c3ccccc32)CC1`, the Intrinsic activity in test [1] was < 0.3. Further, the pKb in test [2] was < 6. `CC(C)n1c(=O)n(C(=O)NC2CC3CCC(C2)N3C)c2ccccc21` (centres undefined) displayed an Intrinsic activity in test [1] of 0.7. In test [2], the pKb is < 6. Take `CCCN1CCN(CCNC(=O)n2c(=O)n(CC)c3ccccc32)CC1`: the Intrinsic activity in test [1] was < 0.3. Besides, the negative-log Kb (pKb) in test [2] is 7.63. `CC(C)N1CCN(CCNC(=O)n2c(=O)n(C(C)C)c3ccccc32)CC1` returned an Intrinsic activity in test [1] of 0.66. For the same molecule, the negative-log Kb (pKb) in test [2] is < 6.
